Experimental data: US6555692B1, “Preparation and use of bifunctional molecules having DNA sequence binding specificity” (California Institute of Technology, priority 1996, dated 2003)

Test system: 5′-TGGCCA-3′
Assay: DNase I footprint titration, pSES9hp fragment
Assay type: binding

CN(C)CCCNC(=O)CCNC(=O)c1cc(NC(=O)c2cc(NC(=O)c3nc(NC(=O)c4nc(NC(=O)CCCNC(=O)c5cc(NC(=O)c6cc(NC(=O)c7nc(NC(=O)c8nccn8C)cn7C)cn6C)cn5C)cn4C)cn3C)cn2C)cn1C [ImImPyPy-γ-ImImPyPy-β-Dp]
reduced affinity at double base pair mismatch sequences (5′-TGCGCA-3′ and 5′-TGGGGA-3′ vs 5′-TGGCCA-3′): at least 200 fold
equilibrium association constant Ka (match site, pH 7.0 and 22° C.): 1e+10 M⁻¹
